How the values were obtained:
D-amino-acid oxidase [1] = biological target: T1, D-amino-acid oxidase (Homo sapiens, UniProt P14920); assay: Inhibition Assay; conditions: pH 7.5; 25 °C
Protocol: The DAAO inhibitory activity was measured by assaying the amount of hydrogen peroxide (H2O2) produced by reacting DAAO protein with flavin adenine dinucleotide (FAD) and D-alanine. The amount of H2O2 was determined by measuring the fluorescence generated on conversion of Amplex red (manufactured by Invitrogen Co.) into resorufin by the reaction of H2O2 with horseradish peroxidase (HRP).

By UniProt entry, the sequences of proteins in these tests, tags left out. Where a name states a change or a piece, a line headed by the entry shows the natural chain unless it says otherwise.
UniProt P14920: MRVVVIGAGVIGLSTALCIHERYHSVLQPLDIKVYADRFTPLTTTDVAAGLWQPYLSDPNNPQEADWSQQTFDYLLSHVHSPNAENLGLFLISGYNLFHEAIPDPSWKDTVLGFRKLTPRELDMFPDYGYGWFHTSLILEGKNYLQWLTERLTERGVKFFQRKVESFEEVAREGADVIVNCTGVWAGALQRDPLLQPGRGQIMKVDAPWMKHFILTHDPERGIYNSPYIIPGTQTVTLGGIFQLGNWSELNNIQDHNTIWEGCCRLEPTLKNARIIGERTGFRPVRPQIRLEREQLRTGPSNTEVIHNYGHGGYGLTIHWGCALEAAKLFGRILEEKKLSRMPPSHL

D-amino-acid oxidase [2] = biological target: T1, D-amino-acid oxidase; assay: Inhibition Assay; conditions: pH 7.5; 25 °C; remark: listed apart in the source
Protocol: At the time of measurement, the cells were centrifuged at 1000 rpm for one min and the Cellbanker solution was removed. […] A 4% DMSO buffer solution (50 mM sodium phosphate [pH 7.5], 0.02% CHAPS) of the test compound (4 μL) was added to a 384-well black, low volume plate, the cell suspension (4 μL) was added, and the mixture was incubated at room temperature for 15 min.

SMILES	IC50 (D-amino-acid oxidase [1])	IC50 (D-amino-acid oxidase [2])
COc1cc(CO)cc(CCc2cc(O)c(=O)[nH]n2)c1 [US9212147, 23]	13 nM	25 nM
O=c1[nH]nc(CCc2cccc(CO)c2)cc1O [US9212147, 16]	2.1 nM	8.8 nM
O=c1[nH]nc(CCc2ccc(CO)cc2)cc1O [US9212147, 14]	2.9 nM	10 nM

From BindingDB's records for patent US9212147 (Takeda Pharmaceutical, 2015)
